# AlphaSeq binding of Ab-14 light chain variants to a spike HR2 peptide

The target is the same throughout: PDVDLGDISGINAS, from the HR2 region of SARS-CoV-2 spike.

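The parent was found by panning a naive human phage display library on the peptide. These sequences belong to a second round, designed from the earlier measurements on random variants of the parent. Group labels follow the data file (Ctrl: baseline library sampled from a position-specific scoring matrix, with some repeated check sequences; Rand: our label for a block that the file lists under HC and that is probably the random mutants of the ten best first-round binders; En: ensemble of fine-tuned language models; GP: Gaussian process model; GPLM: also part of the Gaussian process libraries; HC: hill climbing; Gen: genetic algorithm; Gibbs: Gibbs sampling; a sequence that several methods proposed may carry one label only). The assay is AlphaSeq: two haploid yeast populations carry antibody and antigen on their surface. The frequency of each diploid, read from paired DNA barcodes, reflects how well the two displayed proteins bind. A regression on co-assayed BCL2-family reference pairs converts the normalised counts of each replicate to an apparent Kd. Mating was done six times.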

Parent: Ab-14, a human scFv built as VH, the linker GGGGSGGGGSGGGGS, VL. Only the CDRs of the light chain vary.
VH: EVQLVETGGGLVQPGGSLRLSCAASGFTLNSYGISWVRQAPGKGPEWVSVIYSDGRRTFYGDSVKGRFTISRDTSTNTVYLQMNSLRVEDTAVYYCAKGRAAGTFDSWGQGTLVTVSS
VL: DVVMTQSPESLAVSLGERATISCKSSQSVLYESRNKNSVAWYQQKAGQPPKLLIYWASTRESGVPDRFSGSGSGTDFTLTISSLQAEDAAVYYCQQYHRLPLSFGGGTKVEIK

Each variant is given by its three light chain CDRs, as the data file delimits them; those of the parent are KSSQSVLYESRNKNSVA, WASTRES, QQYHRLPLS.
Affinities are written as log10 Kd with Kd in nM; a lower number is a better binder.
The mean shown is taken over the replicates in which the pair was detected.
Background: pairings of all light chain designs with three empty control strains gave a value in 4% of cases (median 2.64, 5th percentile 1.59). Values in that range, when seen in few replicates, are hard to tell from nonspecific mating. Also given: how often the same scFv was detected with the empty control strains.
The authors' rule: three or more of the six replicates give a measured affinity, fewer mean a poor binder.
A sequence measured in both rounds can read differently, since the two assays cover different ranges.

The variant KSSQSVLGEQRNKNSVA / DISTRES / QQYHRLPLS [Rand] showed 0.29 (6 of 6 replicates; controls 0 of 18).
The variant TIAQSMLYLSNLKNSIA / QAETRES / QQYHRLPIM [En_HC] showed 0.67 (5 of 6 replicates; controls 0 of 18).
The variant TLSQMSGVEAVKHNNVA / ENSTREN / QQYDRLPLS [En_Gen] showed 2.48 (6 of 6 replicates; controls 2 of 18).
The variant KMVKWESEGDRHAANIA / NANKITD / QQYYRLPLA [En_Gibbs] showed 1.22 (6 of 6 replicates; controls 1 of 18).
The variant KFSQEVWYESRNKNSVA / GASQRCS / QQYHRLPLS [GP_Gibbs] showed 0.08 (6 of 6 replicates; controls 0 of 18).
The variant LLWQDFYNGRSQANAVA / DGNQLAS / QQYARLPLV [En_Gibbs] showed 0.14 (6 of 6 replicates; controls 2 of 18).
The variant KFSHSELPEARNKNSVA / WASTRTS / QQYHRLPLS [Ctrl] showed 0.49 (6 of 6 replicates; controls 0 of 18).
The variant ALSQSMDMTSRNVNSVA / DLTTRYN / QQYHRLPLS [En_HC] showed 0.58 (6 of 6 replicates; controls 0 of 18).
The variant KLSGLMRVESKNKSNIA / EVNERSE / QQYDRLPLS [En_Gen] showed 2.20 (6 of 6 replicates; controls 1 of 18).
The variant KYSQPVLYESRNKNSVA / AASLRFS / QQYHCLPLS [Ctrl] showed 2.16 (6 of 6 replicates; controls 0 of 18).
The variant KLSQSWMQQWRNKNSVA / NASTRES / QQYHRLPLS [GP_Gibbs] showed 0.20 (6 of 6 replicates; controls 0 of 18).
The variant QIMDRAEDGNHIAGQVA / DAAELIE / QQYQHLPLS [En_Gibbs] showed 1.57 (6 of 6 replicates; controls 0 of 18).
The variant QVTWRAFNGDSEMNNVA / DNVHAQY / QQYSRLPFT [En_Gibbs] showed 1.16 (6 of 6 replicates; controls 1 of 18).
The variant KMSQSVLQEGRNDNSVA / SASTRCS / QQYHRLPLS [GP_Gibbs] showed 0.43 (4 of 6 replicates; controls 0 of 18).
The variant MISQIYNMGQFAINSVA / QASQRNA / QQYDRLPLM [En_Gen] showed 1.09 (6 of 6 replicates; controls 0 of 18).
The variant KLPQSWLYESRNKNSVA / NASQRED / QQYHRLPLS [GP_Gen] showed -0.13 (6 of 6 replicates; controls 2 of 18).
The variant HYENISEPMGRYDQNIA / NVSIREH / QQYFMLPLS [En_Gibbs] showed 1.04 (6 of 6 replicates; controls 0 of 18).
The variant KSQQSVLYESRNKNSVA / WALTREE / QQYHRLPLS [Ctrl] showed 2.25 (1 of 6 replicates; controls 0 of 18).
The variant KSSQSKLYEMRNKNSVA / EASTRES / QQYHRLPLS [Ctrl] showed 1.65 (1 of 6 replicates; controls 0 of 18).
The variant KLMQSMEYESRNKNSVA / NASTRES / QQYHRLPLS [GP_Gen] showed 0.29 (6 of 6 replicates; controls 0 of 18).
The variant KLSCSCLYDSANKNSVA / NASTRLS / QQYHRLPLS [GP_Gibbs] showed 0.41 (6 of 6 replicates; controls 2 of 18).
The variant HITYGMMVHGRHSSSIA / QAEERAK / QQYDRLPLA [En_Gen] showed 1.70 (6 of 6 replicates; controls 0 of 18).

Continued, with the values leading:

0.59 (6 of 6 replicates; controls 2 of 18) for KLSQSWLYESRNKNSVA / HASTRED / QQYHRLPLS [GP_Gen].
1.89 (5 of 6 replicates; controls 1 of 18) for NLEMFTGMLNMYASSIA / NAHCLVQ / QQYYRLPIS [En_Gibbs].
2.68 (1 of 6 replicates; controls 0 of 18) for MISQLMNMGQFAINSVA / QAQIRNQ / QQYDRLPLI [En_Gen].
-0.07 (6 of 6 replicates; controls 3 of 18) for KMSQSELYESRNKNSVA / DASTRES / QQYHRLPLS [GP_HC].
0.00 (6 of 6 replicates; controls 2 of 18) for KQSKMVMEGSRNKNSVA / EASQREE / QQYHRLPLS [GP_Gibbs].
1.44 (6 of 6 replicates; controls 1 of 18) for TIGVTLMQGIRNRSNVA / EVSERLN / QQYDRLPLA [En_Gen].
1.06 (6 of 6 replicates; controls 0 of 18) for HITYGMQVMGRHSKSIA / QAEERAK / QQYDRLPLI [En_Gen].
1.09 (6 of 6 replicates; controls 2 of 18) for KLSQSTLYDSQNKNSVA / WASTRLS / QQYKRLPLS [GP_HC].
1.16 (2 of 6 replicates; controls 0 of 18) for TISQSVNMTSHGRNSVA / QAEMRES / QQYDRLPLS [En_HC].
0.94 (6 of 6 replicates; controls 1 of 18) for KLSQSVLYDSQNKNSVA / QASTRES / QQVVRLPLS [Ctrl].
1.13 (6 of 6 replicates; controls 0 of 18) for HMNDMLLGQEKIAHSIA / NTGVTSR / QQYQRLPLI [En_Gibbs].
0.94 (6 of 6 replicates; controls 1 of 18) for KLSGSVMMLQRNDNSVA / DASTRES / QQYHRLPLS [GP_Gibbs].
0.08 (6 of 6 replicates; controls 1 of 18) for KSSQSELQESRNKNSVA / DASTRES / QQYWRLPLS [GP_HC].
-0.12 (6 of 6 replicates; controls 3 of 18) for KLYQATAMTSTMRNNVA / DLNERER / QQYFRLPLS [En_HC].
0.67 (6 of 6 replicates; controls 0 of 18) for QIYQAMHTLSQMKDNVA / DVNERGD / QQYYRLPLS [En_Gen].
2.18 (6 of 6 replicates; controls 0 of 18) for TIGQTLMAGIRNRSNVA / EVSERLN / QQYDRLPLI [En_Gen].
-0.39 (6 of 6 replicates; controls 0 of 18) for KLQQSWDYESRNKNSVA / NASTRES / QQYHRLPLS [GP_Gen].
-0.08 (6 of 6 replicates; controls 2 of 18) for KISQSVLFESRNKNSVA / DASTRES / QQYHRLPLS [GP_HC].
0.34 (6 of 6 replicates; controls 0 of 18) for KLSQSVLYEERQKNSVA / NASQRES / QQYHRLPLS [GP_Gen].
-0.30 (6 of 6 replicates; controls 1 of 18) for KLYQSVGTMSHNKQSIA / DMERRED / QQYNRLPLS [En_HC].
1.15 (6 of 6 replicates; controls 0 of 18) for KLTMMYQHTSRNKNNIA / ERSTREE / QQYHHLPLS [En_HC].
0.69 (6 of 6 replicates; controls 1 of 18) for KSSQSQLYESRNKNSVA / GASTRES / QQYHRLPLS [GPLM_HC].

Repeated from above, the 7 best binders with a signal in all replicates:

{"CDR-L1": "KLQQSWDYESRNKNSVA", "CDR-L2": "NASTRES", "CDR-L3": "QQYHRLPLS", "group": "GP_Gen", "log10 Kd (nM), mean": "-0.39", "detected": "6 of 6", "signal with controls": "0 of 18"}
{"CDR-L1": "KLYQSVGTMSHNKQSIA", "CDR-L2": "DMERRED", "CDR-L3": "QQYNRLPLS", "group": "En_HC", "log10 Kd (nM), mean": "-0.30", "detected": "6 of 6", "signal with controls": "1 of 18"}
{"CDR-L1": "KLPQSWLYESRNKNSVA", "CDR-L2": "NASQRED", "CDR-L3": "QQYHRLPLS", "group": "GP_Gen", "log10 Kd (nM), mean": "-0.13", "detected": "6 of 6", "signal with controls": "2 of 18"}
{"CDR-L1": "KLYQATAMTSTMRNNVA", "CDR-L2": "DLNERER", "CDR-L3": "QQYFRLPLS", "group": "En_HC", "log10 Kd (nM), mean": "-0.12", "detected": "6 of 6", "signal with controls": "3 of 18"}
{"CDR-L1": "KISQSVLFESRNKNSVA", "CDR-L2": "DASTRES", "CDR-L3": "QQYHRLPLS", "group": "GP_HC", "log10 Kd (nM), mean": "-0.08", "detected": "6 of 6", "signal with controls": "2 of 18"}
{"CDR-L1": "KMSQSELYESRNKNSVA", "CDR-L2": "DASTRES", "CDR-L3": "QQYHRLPLS", "group": "GP_HC", "log10 Kd (nM), mean": "-0.07", "detected": "6 of 6", "signal with controls": "3 of 18"}
{"CDR-L1": "KQSKMVMEGSRNKNSVA", "CDR-L2": "EASQREE", "CDR-L3": "QQYHRLPLS", "group": "GP_Gibbs", "log10 Kd (nM), mean": "0.00", "detected": "6 of 6", "signal with controls": "2 of 18"}

The measurements come from Li et al. 2023 (doi:10.1038/s41467-023-39022-2) through the FLAb antibody collection.